The values that follow come from ChEMBL document CHEMBL6134772, “Inhibition of monoamine oxidases by heterocyclic derived conjugated dienones: synthesis and in vitro and in silico investigations” (RSC Med Chem, 2025).

Chains of the proteins cited; added tags and fusions are not shown.
UniProt P27338, whole entry: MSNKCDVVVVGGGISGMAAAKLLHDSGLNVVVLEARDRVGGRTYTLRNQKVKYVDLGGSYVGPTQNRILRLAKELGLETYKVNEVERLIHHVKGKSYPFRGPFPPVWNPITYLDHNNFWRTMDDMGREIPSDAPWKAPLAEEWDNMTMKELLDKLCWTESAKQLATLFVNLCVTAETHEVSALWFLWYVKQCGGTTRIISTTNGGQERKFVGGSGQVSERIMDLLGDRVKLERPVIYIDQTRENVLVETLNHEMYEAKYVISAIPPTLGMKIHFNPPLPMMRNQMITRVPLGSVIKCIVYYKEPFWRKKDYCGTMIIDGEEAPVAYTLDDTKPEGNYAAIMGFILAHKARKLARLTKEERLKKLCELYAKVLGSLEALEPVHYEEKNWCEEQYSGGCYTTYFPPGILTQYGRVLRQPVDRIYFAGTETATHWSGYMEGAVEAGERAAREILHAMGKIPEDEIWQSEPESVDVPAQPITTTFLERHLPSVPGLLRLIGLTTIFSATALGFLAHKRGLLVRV

The target of data set [1] is T1, Amine oxidase [flavin-containing] B (Homo sapiens, UniProt P27338). As to the kind of experiment: Irreversible inhibition of recombinant human MAO-B expressed in baculovirus infected BTI insect cells assessed as recovery of enzyme activity by measuring residual activity at 2 times IC50 using benzylamine as substrate incubated for 30 mins prior to 6 hrs of dialysis at 3 hrs interval relative to control. The conditions noted are these: 6.5 h.

Data set [2] has as its target T1, Amine oxidase [flavin-containing] B. As to the kind of experiment: Inhibition of recombinant human MAO-B expressed in baculovirus infected BTI insect cells assessed as residual activity at 2 times IC50 using benzylamine as substrate measured after 30 mins relative to control. The conditions noted are these: 0.5 h.

As to `C#CCN(C)Cc1ccccc1` [PARGYLINE], the figures for the Activity in data set [1] and in data set [2] were 27.96% and 25.93%, respectively.
